Experimental data taken from patent publication US20200237742A1, “Serdexmethylphenidate Conjugates, Compositions And Methods Of Use Thereof” (priority 2018, published 2020).
Structures can show the parent of a compound that is named as a salt.

Conditions: human, in vivo, iv
Description: A study was conducted in humans to assess the intravenous abuse potential of serdexmethylphenidate relative to unconjugated d-methylphenidate and placebo in recreational stimulant abusers. This was a Phase 1, randomized, double-blind study in which serdexmethylphenidate and d-methylphenidate were administered intravenously in recreational stimulant users with a history of non-oral abuse. In Part A of the study, subjects (Cohort 1) participated in a dose-escalation phase to determine the optimal dose of intravenous d-methylphenidate based on tolerability and abuse-related pharmacodynamic assessments. […] The doses of serdexmethylphenidate and d-methylphenidate are equivalent with respect to molar amount of d-methylphenidate. FDA-recommended abuse potential measures and blood samples were collected at different times after dosing. Safety assessments were performed throughout the study.

Compound: COC(=O)[C@H](c1ccccc1)[C@H]1CCCCN1 [d-methylphenidate hydrochloride, d-threo-methylphenidate hydrochloride]
- AUCinf, GLSM: 237.6
- AUClast, GLSM: 233.7
- Cmax, GLSM: 58.3
- T1/2: 3.89 h
- Tmax: 0.375 h
